Key:
[1] = molecular target: T1, rat α2B (RNG gene) receptor (Rattus norvegicus, UniProt P19328); assay: RSAT (Receptor Selection and Amplification Technology) assay, alpha 2B; type: cell-based; settings: ratio of maximal effect to that of standard full agonist oxymetazoline
T1 construct: expressed in transfected cells; host or cells: NIH-3T3 cells, calcium phosphate cotransfection
Description: This preferential activity can be determined in a variety of functional assays such as Cyclic AMP Production, Shimizu et al, J. Neurochem. […] In the study below, the RSAT assay on cells that have been transiently transfected with the human α2A (c10 gene), rat α2B (RNG gene) and human α2C (c4 gene) receptors was used.
The assay measures a receptor-mediated loss of contact inhibition that results in selective proliferation of receptor-containing cells in a mixed population of confluent cells. The increase in cell number is assessed with an appropriate transfected marker gene such as b-galactosidase, the activity of which can be easily measured in a 96-well format. Receptors that activate the G protein, Gq, elicit this response. Alpha2 receptors, which normally couple to Gi, activate the RSAT response when coexpressed with a hybrid Gq protein that has a Gi receptor recognition domain, called Gq/i5^2.
NIH-3T3 cells are plated at a density of 2×10^6 cells in 15 cm dishes and maintained in Dulbecco's modified Eagle's medium supplemented with 10% calf serum. One day later, cells are cotransfected by calcium phosphate precipitation with mammalian expression plasmids encoding p-SV-b-galactosidase (5-10 mg), receptor (1-2 mg) and G protein (1-2 mg). 40 mg salmon sperm DNA may also be included in the transfection mixture. Fresh media is added on the following day and 1-2 days later, cells are harvested and frozen in 50 assay aliquots. […] After washing with phosphate-buffered saline, b-galactosidase enzyme activity is determined by adding 200 ml of the chromogenic substrate (consisting of 3.5 mM o-nitrophenyl-b-D-galactopyranoside and 0.5% nonidet P-40 in phosphate buffered saline), incubating overnight at 30° and measuring optical density at 420 nm. […] The EC50 and maximal effect of each drug at each alpha2 receptor is determined. The efficacy or intrinsic activity is calculated as a ratio of the maximal effect of the drug to the maximal effect of a standard full agonist for each receptor subtype.

By UniProt entry, the sequences of proteins in these tests, tags left out.
UniProt P19328, whole entry: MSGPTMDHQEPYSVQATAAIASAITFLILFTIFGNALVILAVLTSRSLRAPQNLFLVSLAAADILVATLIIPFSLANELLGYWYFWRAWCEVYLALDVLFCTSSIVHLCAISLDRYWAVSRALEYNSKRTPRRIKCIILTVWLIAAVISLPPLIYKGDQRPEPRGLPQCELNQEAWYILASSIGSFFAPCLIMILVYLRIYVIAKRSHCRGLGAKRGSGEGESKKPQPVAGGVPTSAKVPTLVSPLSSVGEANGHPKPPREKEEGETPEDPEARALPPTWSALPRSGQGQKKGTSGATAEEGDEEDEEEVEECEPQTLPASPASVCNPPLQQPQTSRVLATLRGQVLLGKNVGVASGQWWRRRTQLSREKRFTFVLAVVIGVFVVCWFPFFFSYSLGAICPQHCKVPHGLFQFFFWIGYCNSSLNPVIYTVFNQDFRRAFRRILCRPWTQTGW

[2] = tested on: cynomolgus monkeys with sustained elevated IOP; assay: IOP lowering in conscious monkeys, eyes made hypertensive by argon laser photocoagulation; type: in vivo, cynomolgus monkey; settings: Macaca fascicularis, topical, 6 h, ocular dose 0.1%, single 50 μl eye drop, up to 6 hours; read-out: Maximum % Decrease From Pretreatment Levels Hypertensive Eye (IOP)
Description: Measurements of IOP were made in fully conscious female cynomolgus monkeys weighing 3-4 kg with sustained elevated IOP that was produced in the right eye by argon laser photocoagulation of the trabecular meshwork. Animals were usable for experiments 2 months following surgery. During the experiments, monkeys sat in specially designed chairs (Primate Products, San Francisco), and were fed orange juice and fruit as needed. A 30R model Digilab pneumatonometer (Alcon, Tex.) was used to measure IOP.
Twenty five μl of an anesthetic (proparacaine) was topically applied to each monkey before IOP measurements to minimize ocular discomfort due to tonometry. Two baseline measurements were made prior to instillation of the drugs, followed by periodic measurements up to 6 hours post-instillation. The test compounds were administered unilaterally as a single 50 μl eye drop; the contralateral eyes received an equal volume of saline.

SMILES | Intrinsic Activity Relative to Oxymetazoline, Alpha 2B [1] | inhibition in vivo at 0.1 % [2] [%]
Brc1c(NC2=NCCN2)ccc2nccnc12 [brimonidine, reference compound] | 0.93 | 
Clc1cccc(Cl)c1N=C1NCCN1 [clonidine, reference compound] | 0.75 | 25 ± 4
Cc1cc(C(C)(C)C)c(O)c(C)c1CC1=NCCN1 [oxymetazoline, reference compound] | 1.0 | 

From patent US6841684B2, “Imidiazoles having reduced side effects” (Allergan, Inc., priority 1997, dated 2005)
